Source: ChEMBL document CHEMBL4118265, “A cascade synthesis, in vitro cholinesterases inhibitory activity and docking studies of novel Tacrine-pyranopyrazole derivatives” (Bioorg Med Chem Lett, 2018)

Amino acid sequences for entries named in this document (tags omitted).
UniProt P81908, whole entry: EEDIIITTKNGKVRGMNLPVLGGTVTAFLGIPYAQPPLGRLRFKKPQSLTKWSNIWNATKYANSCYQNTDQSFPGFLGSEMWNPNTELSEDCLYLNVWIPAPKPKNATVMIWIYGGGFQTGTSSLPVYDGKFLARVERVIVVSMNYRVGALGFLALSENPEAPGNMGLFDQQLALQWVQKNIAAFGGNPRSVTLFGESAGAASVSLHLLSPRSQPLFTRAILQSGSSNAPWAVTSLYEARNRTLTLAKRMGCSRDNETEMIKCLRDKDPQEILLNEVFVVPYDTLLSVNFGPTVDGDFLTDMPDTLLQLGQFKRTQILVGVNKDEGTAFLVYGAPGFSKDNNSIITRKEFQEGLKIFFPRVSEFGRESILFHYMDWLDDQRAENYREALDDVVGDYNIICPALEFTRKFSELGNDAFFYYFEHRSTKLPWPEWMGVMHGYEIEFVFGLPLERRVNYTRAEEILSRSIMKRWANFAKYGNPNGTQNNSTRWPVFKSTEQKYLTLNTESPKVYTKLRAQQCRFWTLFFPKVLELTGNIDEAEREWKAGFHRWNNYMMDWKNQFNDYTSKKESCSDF

Target: Cholinesterase (Equus caballus) (UniProt P81908)
Assay: Inhibition of horse serum BChE at 12.5 ug using butyrylthiocholine chloride as substrate preincubated for 15 mins followed by substrate addition measured every 5 mins for 15 mins by spectrophotometric method relative to control
In short: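 Ellman colorimetric assay. Compound in methanol (10 µl) was mixed with 150 µl 100 mM sodium phosphate pH 8.0 and BChE (6.85 x10-3 U) and held 15 min at 25 °C. DTNB (0.5 mM) was added, then butyrylthiocholine chloride (0.2 mM) to start the reaction. A412 read every 5 min for 15 min, in triplicate. Percent inhibition = (E−S)/E×100 against a methanol blank.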

COc1ccc2c3c1O[C@H]1C[C@@H](O)C=C[C@@]31CCN(C)C2
inhibition: 85.7%
